## AlphaSeq binding of Ab-95 light chain variants to a spike HR2 peptide

Binding partner: SARS-CoV-2 spike HR2 peptide, sequence PDVDLGDISGINAS.

Ab-95 is the parent antibody, in scFv form: VH, then the linker GGGGSGGGGSGGGGS, then VL. The heavy chain is unchanged in all variants.
VH: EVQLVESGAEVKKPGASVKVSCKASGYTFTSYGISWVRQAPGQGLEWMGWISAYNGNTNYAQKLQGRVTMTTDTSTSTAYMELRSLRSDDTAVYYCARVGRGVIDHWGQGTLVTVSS
VL: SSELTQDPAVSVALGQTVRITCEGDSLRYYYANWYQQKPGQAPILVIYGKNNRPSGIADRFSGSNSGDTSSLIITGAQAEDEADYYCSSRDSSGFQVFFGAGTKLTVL

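The parent was found by panning a naive human phage display library on the peptide. Variants in AAYL52 differ from the parent at up to three CDR positions; double and triple changes were sampled at random. In AlphaSeq, yeast of one mating type display the scFv and yeast of the other type display the target. The frequency of each diploid, read from paired DNA barcodes, reflects how well the two displayed proteins bind. Each replicate has its own calibration line, from reference interactions of the BCL2 family. There are three technical replicates.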

Substitutions are numbered in sequence along the VL above, starting at 1 (not Kabat). Affinities are written as log10 Kd with Kd in nM; a lower number is a better binder. Averages over replicates are reported, and they cover detected replicates only. "ND" marks a missing value. The strain was present, yet no cells mated with the target were sequenced in that replicate, which points to weak or no binding. Parent in this assay: reference entry 2.31, copy in this library 2.25. As a blank, each scFv also met three strains without target: over library AAYL52, 28% of these pairings were detected, typically at 3.91 and seldom below 2.90. Also given: how often the same scFv was detected with the empty control strains, with their mean in brackets.

changes,log10 Kd (nM) by replicate,"mean, log10 nM",empty controls
G49D+S92Q+V97F,2.20 2.10 1.76,2.02,1/9 (3.41)
A32K+D91R+S93A,3.01 4.77 ND,3.89,2/9 (3.42)
N33G+S55N+G94R,ND ND ND,ND,0/9
N52H+D91Q+S92N,2.59 ND ND,2.59,3/9 (3.86)
K50S+S55E+S89A,2.03 1.83 1.86,1.91,3/9 (4.28)
N51I+S89Q+S93D,4.72 3.74 ND,4.23,3/9 (4.58)
Y30N+K50H+S88Y,1.28 1.26 0.80,1.11,4/9 (4.04)
K50C+S88V,3.45 3.58 ND,3.52,3/9 (3.09)
D25S+S89T+R90S,ND ND ND,ND,1/9 (3.72)
Y31D+S88Y+F95P,1.58 1.31 0.88,1.26,1/9 (3.18)
R28A+P54W+S92H,ND ND ND,ND,0/9
L27D+G49T,ND ND 3.66,3.66,2/9 (4.45)
N51F+S89H+S92F,4.88 3.23 ND,4.06,0/9
D25K+N33H+F98Y,2.30 2.74 2.12,2.39,1/9 (3.05)
S26H+S89G+D91L,2.59 3.41 2.92,2.98,0/9
Y29V+G94C,2.94 3.73 3.55,3.41,2/9 (3.67)
N51H+N52A+S88H,ND 4.44 ND,4.44,0/9
E23D+R53A+F95A,3.51 3.98 ND,3.75,2/9 (4.14)
S26Q+Y29E+K50Q,2.16 2.04 1.40,1.87,2/9 (3.23)
S26Q+R28P+P54N,ND 4.81 ND,4.81,2/9 (4.32)
A32I+N52K+G94H,4.07 5.10 ND,4.58,6/9 (4.01)
A32W+S88P,ND ND 3.13,3.13,1/9 (3.35)
F98K,3.18 3.32 ND,3.25,1/9 (4.04)
G24H+R53Q+D91Y,ND 3.84 ND,3.84,1/9 (3.30)
Y29W+P54D+G94S,3.70 3.35 3.11,3.39,2/9 (5.10)
P54V+D91T+Q96V,3.13 4.95 ND,4.04,5/9 (3.35)
G49A+S55H+G94I,3.01 3.52 3.15,3.23,7/9 (3.73)
R53T+G94K+F98H,3.72 3.50 3.01,3.41,4/9 (4.64)
A32I+S92K,ND 4.69 2.94,3.81,2/9 (3.27)
R53F+S93R+F95N,ND ND ND,ND,3/9 (4.10)
Y30E+N52M+S92R,1.19 1.13 0.50,0.94,4/9 (4.45)
G24Q+L27Y+G94I,ND ND 4.45,4.45,5/9 (4.29)
S88F+S92A+F95L,ND ND ND,ND,1/9 (3.27)
N33V+R53C+D91F,3.94 ND ND,3.94,0/9
R90T+F95W,2.25 1.67 2.19,2.03,1/9 (1.71)
G24N+N33M+D91L,3.53 ND ND,3.53,1/9 (3.60)
S55H+D91V+F98R,4.31 2.57 3.18,3.36,1/9 (3.81)
S26G+N33S+S92N,2.69 2.86 3.16,2.90,4/9 (3.53)
Y29M+P54L+R90K,ND ND ND,ND,1/9 (3.40)
Y31Q+D91W+S93F,1.47 2.16 1.29,1.64,3/9 (3.67)
N33H+S88E+F95P,3.98 ND ND,3.98,2/9 (4.31)

From the AlphaSeq antibody data of Engelhart et al. 2022 (doi:10.1038/s41597-022-01779-4), copy in the FLAb collection.